Assay results as given in PubChem BioAssay AID743280 (The Scripps Research Institute Molecular Screening Center, 2014).
The entries are a selection whose mix differs from that of the whole data set. The source made the active and inactive calls.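 Rule for the calls: active = mean inhibition across triplicates above the hit cutoff set in the earlier primary screen (cut at about 19% in these data); inactive = the rest.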

Amino acid sequences for entries named in this document (tags omitted). A change or cut given only in a name is not applied to a line headed by its entry.
UniProt Q9NZ20: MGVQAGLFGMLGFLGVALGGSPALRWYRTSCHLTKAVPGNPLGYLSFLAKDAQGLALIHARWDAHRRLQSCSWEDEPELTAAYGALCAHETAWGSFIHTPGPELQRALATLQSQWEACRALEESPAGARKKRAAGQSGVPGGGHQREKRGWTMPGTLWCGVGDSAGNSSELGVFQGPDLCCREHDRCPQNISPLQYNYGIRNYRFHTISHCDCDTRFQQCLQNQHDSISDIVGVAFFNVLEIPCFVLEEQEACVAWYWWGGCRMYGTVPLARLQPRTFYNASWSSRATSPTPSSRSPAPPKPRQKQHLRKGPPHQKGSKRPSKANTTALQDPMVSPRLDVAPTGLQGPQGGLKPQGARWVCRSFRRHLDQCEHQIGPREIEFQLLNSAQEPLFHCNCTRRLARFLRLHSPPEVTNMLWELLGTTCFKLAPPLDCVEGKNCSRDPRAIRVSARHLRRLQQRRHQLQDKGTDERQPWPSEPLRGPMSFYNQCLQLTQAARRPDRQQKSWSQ

Each compound was assayed against Group 3 secretory phospholipase A2 (Homo sapiens) (UniProt Q9NZ20) (assay: HGIII-sPLA2 enzyme inhibition – biochemical, QFRET, triplicate, confirmation (AID 743280;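 note: 0% = enzyme with DMSO and 100% = DMSO wells lacking enzyme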)). Settings: recombinant hGIII-sPLA2, BODIPY PC-A2 QFRET fluorescence; at 12.2 µM; active compounds read high.
`O=[N+]([O-])c1cc(Oc2ccc([N+](=O)[O-])cc2C(F)(F)F)cc([N+](=O)[O-])c1` was tested, and the inhibition was active: 24.1%.
